Assay results taken from patent US4952591A, “Anti-ulcer urea derivatives” (Kyorin Pharmaceutical Co., Ltd., priority 1987, dated 1990).

Sequences of proteins named here, by UniProt entry; tags and fusion partners are left off.
UniProt P47747, whole entry: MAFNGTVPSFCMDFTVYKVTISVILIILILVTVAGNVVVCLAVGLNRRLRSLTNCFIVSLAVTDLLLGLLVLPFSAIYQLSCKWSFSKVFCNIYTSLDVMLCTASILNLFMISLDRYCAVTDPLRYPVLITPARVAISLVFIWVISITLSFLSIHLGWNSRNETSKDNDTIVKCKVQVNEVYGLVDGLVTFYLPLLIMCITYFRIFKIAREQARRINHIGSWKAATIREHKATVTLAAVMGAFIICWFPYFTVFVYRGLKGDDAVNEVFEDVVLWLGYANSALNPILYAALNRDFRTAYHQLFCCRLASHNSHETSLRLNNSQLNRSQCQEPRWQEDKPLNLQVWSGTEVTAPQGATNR

Biological target: T1, Histamine H2-receptor (Cavia porcellus, UniProt P47747)
T1 construct: The right atrium was dissected and suspended at 0.5 g tension in a 10 ml organ bath; from tissue; host or cells: isolated right atrium of male Hartley guinea-pigs
Assay: Histamine H2-receptor antagonism (isolated right atrium, positive chronotropic effect of histamine)
Parameters: species or system Male Hartley guinea-pigs
Details: guinea-pig right atrium, 32±1° C., drugs added 5 minutes before histamine
Procedure: Male Hartley guinea-pigs, weighing between 300 and 400 g, were used in the experiment. The right atrium was dissected and suspended at 0.5 g tension in a 10 ml organ bath containing Krebs-Henseleit's solution, kept at 32±1° C. and bubbled with the gas mixture (95 % O2 and 5 % CO2). Contractions were recorded with a force-displacement transducer through a strain gange. Cumulative concentration-response curves for the positive chronotropic effect of histamine on atrium were displaced to the right in parallel by drugs, and the effects of test drugs were calculated as the pA2 values. Drugs were added into the organ bath 5 minutes before histamine treatment.

For `CN/C(=N/CCSCc1nc[nH]c1C)NC#N` [Cimetidine, reference compound], which pA2 is on record?
Its pA2 is 6.58.
